From article PMC10540216, “Activity Guided Azide-methyllysine Photo-trapping for Substrate Profiling of Lysine Demethylases” (Journal of the American Chemical Society, 2023)

Test system: KDM4A-I71AzF
Assay: CASI: photo-crosslinking with HEK293T cell extracts, StrepTactin enrichment and LC-MS/MS proteomics;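 further: lysates from HEK293T cells pretreated with a KDM4 inhibitor to raise proteome methylation, affinity-purified after ±UV, gel-resolved, trypsin-digested, with exclusive unique peptides per protein averaged per condition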
Assay type: binding, human
Conditions: sheet "Final results but with 0.01"

B1: NUP93_HUMAN (protein, UniProt Q8N1F7 1-819, looked up)
Nuclear pore complex protein …: MDTEGFGELLQQAEQLAAETEGISELPHVERNLQEIQQAGERLRSRTLTRTSQETADVKASVLLGSRGLDISHISQRLESLSAATTFEPLEPVKDTDIQGFLKNEKDNALLSAIEESRKRTFGMAEEYHRESMLVEWEQVKQRILHTLLASGEDALDFTQESEPSYISDVGPPGRSSLDNIEMAYARQIYIYNEKIVNGHLQPNLVDLCASVAELDDKSISDMWTMVKQMTDVLLTPATDALKNRSSVEVRMEFVRQALAYLEQSYKNYTLVTVFGNLHQAQLGGVPGTYQLVRSFLNIKLPAPLPGLQDGEVEGHPVWALIYYCMRCGDLLAASQVVNRAQHQLGEFKTWFQEYMNSKDRRLSPATENKLRLHYRRALRNNTDPYKRAVYCIIGRCDVTDNQSEVADKTEDYLWLKLNQVCFDDDGTSSPQDRLTLSQFQKQLLEDYGESHFTVNQQPFLYFQVLFLTAQFEAAVAFLFRMERLRCHAVHVALVLFELKLLLKSSGQSAQLLSHEPGDPPCLRRLNFVRLLMLYTRKFESTDPREALQYFYFLRDEKDSQGENMFLRCVSELVIESREFDMILGKLENDGSRKPGVIDKFTSDTKPIINKVASVAENKGLFEEAAKLYDLAKNADKVLELMNKLLSPVVPQISAPQSNKERLKNMALSIAERYRAQGISANKFVDSTFYLLLDLITFFDEYHSGHIDRAFDIIERLKLVPLNQESVEERVAAFRNFSDEIRHNLSEVLLATMNILFTQFKRLKGTSPSSSSRPQRVIEDRDSQLRSQARTLITFAGMIPYRTSGDTNARLVQMEVLMN
Fold change (+UV/-UV): 0.6667
